Blood levels data for one substance are collected here from patent US20020045603A1, “Method of inhibiting membrane-type matrix metalloproteinase” (The Research Foundation of State University of New York, priority 1998, published 2002).

This series is described as follows: Blood levels after oral gavage of adult rats. To be noted: orally gavaged.

Take “4-hydroxy-4-de(dimethylamino)tetracycline [CMT-6]”: the blood levels entry was “no detectable blood levels”.
